From patent US20250114416A1, “ANTIVIRAL C[…] EXTRACT AND STEROID COMPOUND AS ACTIVE INGREDIENTS” (priority 2022, published 2025)

Columns and labels:
Details in all cases: examples using ginseng (Table 1); mouse liver, oral twice a day for 2 weeks, 22.5 mg/kg extract and/or steroid; non-administered control = 1
[1] = system: Ifnb1 (interferon beta) mRNA
[2] = system: Mx1 (Mx dynamin like GTPase 1) mRNA
[3] = system: Mx2 (Mx dynamin like GTPase 2) mRNA

SMILES	Relative mRNA expression level Ifnb1 [1]	Relative mRNA expression level Mx1 [2]	Relative mRNA expression level Mx2 [3]
C[C@]12CCC(=O)C=C1CC[C@@H]1[C@@H]2[C@@H](O)C[C@@]2(C)[C@H]1CC[C@]2(O)C(=O)CO [Comparative Example 5, Hydrocortisone]	0.7 ± 0.2	0.6 ± 0.2	0.7 ± 0.3
C[C@]12C=CC(=O)C=C1CC[C@@H]1[C@@H]2[C@@H](O)C[C@@]2(C)[C@H]1CC[C@]2(O)C(=O)CO [Comparative Example 6, Prednisolone]	0.8 ± 0.2	0.8 ± 0.2	0.8 ± 0.3
C[C@@H]1C[C@H]2[C@@H]3CCC4=CC(=O)C=C[C@]4(C)[C@@]3(F)[C@@H](O)C[C@]2(C)[C@@]1(O)C(=O)CO [Comparative Example 4, Dexamethasone]	0.7 ± 0.2	0.7 ± 0.2	0.8 ± 0.3
C[C@]12C=CC(=O)C=C1CC[C@H]1[C@@H]3C[C@@H](O)[C@](O)(C(=O)CO)[C@@]3(C)C[C@H](O)[C@@]12F [Comparative Example 7, Triamcinolone]	0.7 ± 0.2	0.9 ± 0.2	0.7 ± 0.3
